# Properties, as collected for the OPERA models

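OPERA's authors assembled the values from existing databases and did not measure them anew. A listed value is a point estimate from one report or more. Method, purity and exact conditions of the single measurements are not given. Where a salt, mixture or single isomer is drawn, the source does not say that exactly this form was tested. Some entries may be limits or estimates that an upstream database listed as plain numbers.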

Melting points are in °C.
Boiling points are in °C, nominally at 760 mmHg.
The octanol-water partition coefficient is given as log10; larger values mean a more lipophilic compound.
Solubility in water is on a log10 molar scale (set defined at 25 °C).
Vapor pressures (log10 mmHg) refer to near room temperature, 15 to 30 °C; higher is more volatile.
Henry's law constant (air-water partitioning) is log10 of atm·m3/mol, nominally at 25 °C.
The unbound fraction in human plasma runs from 0 (all bound) to 1 (all free).
Clint is human hepatic intrinsic clearance in µL/min per million cells; 0 means that no clearance was seen.
Cells with "–" have no entry in this list.

| SMILES | mp (°C) | boiling point (°C) | log Kow | water solubility (log10 mol/L) | log VP (log10 mmHg) | log H (log10 atm·m3/mol) | fu | Clint (µL/min/10^6 cells) |
|---|---|---|---|---|---|---|---|---|
| CC(CC(=O)[O-])CC(C)(C)C.[K+] (stereo unspecified) | 285 | – | -0.47 | – | -8.745 | – | – | – |
| Cc1ccc(S(=O)(=O)Nc2ccc(Nc3ccccc3)cc2)cc1 | 147.1 | – | 2.58 | -6.45 | – | – | – | – |
| C=CCOc1ccc(S(=O)(=O)c2ccc(O)cc2)cc1 | 173.1 | – | 2.12 | -4.688 | -13.73 | – | – | – |
| N=C(N)NCC1COC2(CCCCC2)O1 (stereo unspecified) | – | – | 0.6 | -2.043 | – | – | – | – |
| COC(=O)C(=Cc1ccc(OC)cc1)C(=O)OC | – | – | 2.4 | -3.439 | -5.577 | – | – | – |
| Cc1ccc2c(c1)[C@H](N)[C@@H](C)C2 | – | – | – | -1.716 | -3.166 | – | – | – |
| CCCCCC1CCCC1=O (stereo unspecified) | – | – | 3.28 | -2.743 | -0.937 | – | – | – |
| C=CC1(C)CCCC(C)(C)O1 (stereo unspecified) | – | – | – | -2.536 | 0.564 | – | – | – |
| CCCCCOC(=O)CCCC | – | – | 4.6 | -3.624 | – | – | – | – |
| FC(F)(F)c1cccc(C(c2ccccc2)(c2ccccc2)n2ccnn2)c1 | 132 | – | – | -8.383 | – | – | – | – |
| O=C1CCC2CCCCC2O1 (stereo unspecified) | – | – | 1.4 | – | -2.803 | – | – | – |
| O=C(O)c1cccc(Oc2ccccc2)c1 | – | – | – | -4.1 | -5.354 | -8.626 | – | – |
| CCCCCCCCCCCCSC(C)CC(=O)[C@@H]1[C@@H](C)C=CCC1(C)C (relative stereo) | 19 | – | 9.4 | -8.897 | – | – | – | – |
| CC(C)CCOC(=S)S | -6 | 90.5 | – | – | 1.466 | – | – | – |
| CCCc1ccc(O)c(OC)c1 | – | – | – | – | – | – | 0.0707 | 24.6 |
| COC(=O)c1ccccc1OS(=O)(=O)c1ccc(C)cc1 | 137.6 | – | 1.8 | -3.597 | – | – | – | – |
| Clc1cc(Cl)c(Oc2cc(Cl)c(Cl)cc2Cl)c(Cl)c1 | 95 | – | – | -8.04 | – | – | – | – |
| CC1=C(O)C(=O)C(C)O1 (stereo unspecified) | – | – | 0.95 | – | -2.216 | – | – | – |
| CCCCCC1CCC(=O)CC1 | – | – | 4.5 | -3.185 | -1.824 | – | – | – |

Excerpt, the opening 2 entries:

| SMILES | mp (°C) | boiling point (°C) | log Kow | water solubility (log10 mol/L) | log VP (log10 mmHg) | log H (log10 atm·m3/mol) | fu | Clint (µL/min/10^6 cells) |
|---|---|---|---|---|---|---|---|---|
| CC(CC(=O)[O-])CC(C)(C)C.[K+] (stereo unspecified) | 285 | – | -0.47 | – | -8.745 | – | – | – |
| Cc1ccc(S(=O)(=O)Nc2ccc(Nc3ccccc3)cc2)cc1 | 147.1 | – | 2.58 | -6.45 | – | – | – | – |

Source: data files of OPERA 2.9 (Mansouri et al.), github.com/kmansouri/OPERA.